# Yeast mating assay 2: variants of the scFv Ab-95

Target: peptide PDVDLGDISGINAS, taken from heptad repeat 2 (HR2) of SARS-CoV-2 spike.

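The starting antibody came from a phage panning campaign against this peptide. Library AAYL52 holds single substitutions and randomly drawn double and triple substitutions in the CDRs. In AlphaSeq, yeast of one mating type display the scFv and yeast of the other type display the target. Binding brings cells together so that they mate, and sequencing counts the barcode pairs among the diploids. The ratio of observed to expected reads was calibrated, replicate by replicate, on BCL2-family standards whose Kd was known from biolayer interferometry. Each pool was mated in three replicate cultures.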

Ab-95 is the parent antibody, in scFv form: VH, then three GGGGS repeats, then VL. The heavy chain is unchanged in all variants.
VH: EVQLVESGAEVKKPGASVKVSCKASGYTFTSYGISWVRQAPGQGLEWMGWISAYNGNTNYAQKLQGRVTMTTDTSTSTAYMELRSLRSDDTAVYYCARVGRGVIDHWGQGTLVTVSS
VL: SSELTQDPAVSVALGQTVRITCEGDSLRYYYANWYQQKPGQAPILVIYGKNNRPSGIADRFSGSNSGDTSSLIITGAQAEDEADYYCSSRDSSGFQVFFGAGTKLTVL

Each variant's VL is given in full. Scale: log10 of Kd in nM, estimated from mating counts; low values are strong binders. Replicates are averaged; those with no signal do not enter the mean. An entry "no signal" has no value in the source: the pair was not observed among the diploids in any replicate. This suggests poor binding but is not conclusive. Parent in this assay: reference entry 2.31, copy in this library 2.25. As a blank, each scFv also met three strains without target: over library AAYL52, 28% of these pairings were detected, typically at 3.91 and seldom below 2.90.

VL | mean log10 Kd (nM) | detected
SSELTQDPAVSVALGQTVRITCDGDSLRYYYANWYQQKPGQAPILVIYGKNNRPNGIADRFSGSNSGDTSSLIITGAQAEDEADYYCSSRDSSGFQVFFGAGTKLTVL | 2.09 | 3 of 3
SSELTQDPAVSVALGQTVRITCEGDSLDYYYANWYQQKPGQAPILVIYGKNNRPSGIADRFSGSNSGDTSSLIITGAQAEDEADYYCSSRDVSGFLVFFGAGTKLTVL | 3.14 | 3 of 3
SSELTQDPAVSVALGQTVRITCIGDSPRYYYANWYQQKPGQAPILVIYGKNNLPSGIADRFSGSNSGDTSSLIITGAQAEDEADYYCSSRDSSGFQVFFGAGTKLTVL | 3.28 | 2 of 3
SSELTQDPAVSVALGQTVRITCEGDSLRYYYANWYQQKPGQAPILVIYGKNVIPSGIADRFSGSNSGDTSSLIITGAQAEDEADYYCSSRDYSGFQVFFGAGTKLTVL | no signal | 0 of 3
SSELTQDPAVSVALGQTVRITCEGDSYRYYYANWYQQKPGQAPILVIYGKTNRPSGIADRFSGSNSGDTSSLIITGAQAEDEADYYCSSRDSSLFQVFFGAGTKLTVL | 4.73 | 1 of 3
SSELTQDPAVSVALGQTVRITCEGDSLRYYYANWYQQKPGQAPILVIYGMGNRPGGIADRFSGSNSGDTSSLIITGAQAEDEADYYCSSRDSSGFQVFFGAGTKLTVL | 3.20 | 3 of 3
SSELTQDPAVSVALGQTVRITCEGDSLRYYYAYWYQQKPGQAPILVIYGKNCRPSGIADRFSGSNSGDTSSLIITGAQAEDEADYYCSSEDSSGFQVFFGAGTKLTVL | no signal | 0 of 3
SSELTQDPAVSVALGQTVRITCEGDSLRYYYANWYQQKPGQAPILVIYGKNNRPSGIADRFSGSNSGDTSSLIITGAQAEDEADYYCSSRFSKGFQSFFGAGTKLTVL | 2.53 | 2 of 3
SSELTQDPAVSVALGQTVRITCEGDSLDYYYANWYQQKPGQAPILVIYGKNNRPDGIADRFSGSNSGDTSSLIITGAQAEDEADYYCSNRDSSGFQVFFGAGTKLTVL | 3.19 | 3 of 3
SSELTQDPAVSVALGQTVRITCEGRSLRYYYANWYQQKPGQAPILVIYGKNWRPSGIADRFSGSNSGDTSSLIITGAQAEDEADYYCSSRDSSGFAVFFGAGTKLTVL | 4.28 | 3 of 3

Second part, the sequence after the result:

mean log10 Kd (nM) | detected | VL
2.42 | 1 of 3 | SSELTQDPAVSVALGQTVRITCFGDSLRYYVANWYQQKPGQAPILVIYGKNNRCSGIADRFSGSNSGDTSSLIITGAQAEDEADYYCSSRDSSGFQVFFGAGTKLTVL
3.79 | 1 of 3 | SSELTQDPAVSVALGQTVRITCEGDSLRYYYANWYQQKPGQAPILVIYRKNNRPSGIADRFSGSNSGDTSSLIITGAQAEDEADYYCSSRKSWGFQVFFGAGTKLTVL
3.56 | 1 of 3 | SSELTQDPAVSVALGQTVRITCEGDSQRYYYANWYQQKPGQAPILVIYGKNNRPSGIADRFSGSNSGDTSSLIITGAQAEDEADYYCSSRDSSGFQVSFGAGTKLTVL
3.75 | 3 of 3 | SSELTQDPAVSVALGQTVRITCEGASLRYYYANWYQQKPGQAPILVIYGKNNMPSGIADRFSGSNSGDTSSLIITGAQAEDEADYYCSSRDSSGFQVGFGAGTKLTVL
2.52 | 3 of 3 | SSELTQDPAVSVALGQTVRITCEGDSLRYYYANWYQQKPGQAPILVIYGKNNRPSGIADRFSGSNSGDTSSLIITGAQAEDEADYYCSSRDWSLFQEFFGAGTKLTVL
3.13 | 1 of 3 | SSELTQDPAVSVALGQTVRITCEGDSTHYYYANWYQQKPGQAPILVIYGKYNRPSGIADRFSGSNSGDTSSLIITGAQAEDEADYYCSSRDSSGFQVFFGAGTKLTVL
4.46 | 1 of 3 | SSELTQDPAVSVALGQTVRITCEGDSLRYYYANWYQQKPGQAPILVIYVKCNRYSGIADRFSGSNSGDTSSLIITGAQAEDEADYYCSSRDSSGFQVFFGAGTKLTVL
4.59 | 2 of 3 | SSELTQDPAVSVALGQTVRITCEGDSLRYYYANWYQQKPGQAPILVIYPLINRPSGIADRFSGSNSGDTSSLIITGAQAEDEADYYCSSRDSSGFQVFFGAGTKLTVL
no signal | 0 of 3 | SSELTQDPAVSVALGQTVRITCEGDSLRYYYANWYQQKPGQAPILVIYGKNNRPIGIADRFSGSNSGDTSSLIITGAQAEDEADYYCSSADSSGFQVFFGAGTKLTVL
4.52 | 2 of 3 | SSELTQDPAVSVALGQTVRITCEGDVLRYYLANWYQQKPGQAPILVIYGKCNRPSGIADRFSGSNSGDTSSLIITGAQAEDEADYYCSSRDSSGFQVFFGAGTKLTVL

Extract of 3 entries:

VL,mean log10 Kd (nM),detected
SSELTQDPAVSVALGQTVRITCEGDSLRYYYANWYQQKPGQAPILVIYGKNNRPSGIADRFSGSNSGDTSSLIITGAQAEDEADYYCSSRDWSLFQEFFGAGTKLTVL,2.52,3 of 3
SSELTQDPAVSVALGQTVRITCEGDSYRYYYANWYQQKPGQAPILVIYGKTNRPSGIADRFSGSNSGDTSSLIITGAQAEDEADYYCSSRDSSLFQVFFGAGTKLTVL,4.73,1 of 3
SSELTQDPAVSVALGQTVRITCEGDSLRYYYANWYQQKPGQAPILVIYGKNNRPSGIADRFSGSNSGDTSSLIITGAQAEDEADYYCSSRFSKGFQSFFGAGTKLTVL,2.53,2 of 3

Source: Engelhart et al. 2022 (doi:10.1038/s41597-022-01779-4), MIT Lincoln Laboratory and A-Alpha Bio; data file from the FLAb repository.